Species: Homo sapiens
Experiment: Selectivity index, ratio of IC50 for human recombinant MAOA to IC50 for human recombinant MAOB

Row | Ratio IC50 | SMILES
1 | < 0.014 | CCCCCC/C(C)=N/Nc1nc(-c2cccc(OC)c2)cs1
2 | < 0.036 | COc1cccc(-c2csc(N/N=C/c3cccc4ccccc34)n2)c1

From ChEMBL document CHEMBL1212838, “Investigations on the 2-thiazolylhydrazyne scaffold: synthesis and molecular modeling of selective human monoamine oxidase inhibitors” (Bioorg Med Chem, 2010)
